{"source": "ChEMBL document CHEMBL1122142", "about": "“Synthesis and antiinflammatory activity of hexahydrothiopyrano[4,3-c]pyrazoles and related analogues” (J Med Chem, 1982)", "experiment": "Therapeutic ratio was determined for intraperitoneal administration", "assay_type": "ADME", "conditions": "ip", "data": [{"smiles": "COc1ccc2cc([C@H](C)C(=O)O)ccc2c1", "note": "[NAPROXEN]", "values": [{"measurement": "TR", "result": 3}]}]}
